The values that follow are results of earlier work, collected in US20090137538A1, “METHOD OF TREATING ATROPHIC VAGINITIS” (priority 2006, published 2009).

Where two headings read alike, the source gives them in different places.

For the series, the system named is endometrium. Conditions: cited from earlier work.

Consider `C[C@]12CC[C@@H]3c4ccc(O)cc4CC[C@H]3[C@@H]1C[C@@H](O)[C@@H]2O` [Estriol, 16-alpha, 17-beta, estra 1,3,5 (10) triene 3, 16, 17-triol], for which the “odds ratio for endometrial atypical hyperplasia” value runs as follows: (in vivo, po) 8.3; (oral use, exposed less than 5 years, never use 1.0) 2.2.
